Laboratory results published in patent US20260083826A1, “NEW SYNTHETIC DRUGS FOR TREATING ALZHEIMER'S DISEASE” (OKINAWA INSTITUTE OF SCIENCE AND TECHNOLOGY SCHOOL …, priority 2022, published 2026).

Protein sequences, listed by entry. Tags and fused reporters are not part of them.
UniProt P02550, whole entry: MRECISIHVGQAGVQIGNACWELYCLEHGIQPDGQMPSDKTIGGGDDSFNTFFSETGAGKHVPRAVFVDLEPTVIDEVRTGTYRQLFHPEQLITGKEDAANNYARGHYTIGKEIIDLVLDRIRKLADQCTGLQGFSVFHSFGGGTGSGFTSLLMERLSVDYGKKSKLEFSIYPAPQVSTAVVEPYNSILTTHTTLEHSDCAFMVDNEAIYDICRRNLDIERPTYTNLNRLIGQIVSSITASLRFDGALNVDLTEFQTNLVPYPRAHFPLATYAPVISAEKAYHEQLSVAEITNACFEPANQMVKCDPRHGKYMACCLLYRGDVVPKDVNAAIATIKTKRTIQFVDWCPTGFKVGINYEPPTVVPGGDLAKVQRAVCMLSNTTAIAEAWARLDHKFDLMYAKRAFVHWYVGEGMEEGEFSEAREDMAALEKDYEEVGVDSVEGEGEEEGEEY
UniProt P02554, whole entry: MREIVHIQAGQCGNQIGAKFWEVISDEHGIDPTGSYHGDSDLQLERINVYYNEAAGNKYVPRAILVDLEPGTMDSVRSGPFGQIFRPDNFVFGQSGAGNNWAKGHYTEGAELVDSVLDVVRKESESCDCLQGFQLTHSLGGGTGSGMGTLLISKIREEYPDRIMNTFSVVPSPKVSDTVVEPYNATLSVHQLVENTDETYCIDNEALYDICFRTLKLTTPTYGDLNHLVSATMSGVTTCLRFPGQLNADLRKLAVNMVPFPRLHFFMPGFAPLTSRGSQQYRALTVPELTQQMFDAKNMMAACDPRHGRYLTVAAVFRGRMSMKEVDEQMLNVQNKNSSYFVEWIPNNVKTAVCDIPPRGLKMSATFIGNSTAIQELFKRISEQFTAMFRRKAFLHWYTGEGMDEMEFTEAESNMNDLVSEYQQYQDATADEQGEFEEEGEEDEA

Target: T1, MTs (Sus scrofa, UniProt P02550+P02554)
T1 construct: made in house; host or cells: GST-PH: E. coli BL21 (DE3) pLysS, pGEX-6P vector
Assay: Confocal and electron microscopic observation of microtubules and GST-PH protein
Assay type: binding
Conditions: confocal imaging, confirmed by electron microscopy; GST alone as control
Procedure: The cDNA encoding PH domain (521-618 amino acids) of human dynamin 1 (NM_004408.4) (75) were prepared by PCR and subcloned into the plasmid pGEX-6P vector. The resulting plasmid was transformed into bacterial BL21 (DE3) pLysS strain for protein expression. The expression of GST-fusion proteins was induced by 0.1 mM isopropyl-1-thio-D-galactopyranoside (IPTG) at 37° C. for 3-6 h in LB media supplemented with 100 μg/ml ampicillin at Aww=0.8. GST-fusion proteins were then purified as described (76). The nucleotide sequences of the constructs using in this study were verified with DNA sequence analysis. All the purified protein solutions (1-3 mg/ml) were stored at −80° C. and thawed at 37° C. before use.
Microscopic observation of microtubule and GST-PH protein GST or GST-PH was labeled using HiLyte Fluor-555 labeling kit according to manufacture's manual (cat #LK14, Dojindo Co. LTD, Kumamoto, Japan). HiLyte Fluor-555 labeled GST or GST-PH was mixed with non-labelled each protein at the ratio of 1:1.2. Flutax 1-stabilized microtubules (4.1 μM) and fluorescent GST or GST-PH at 11 μM were mixed in GTB containing 2 μM Flutax 1 at 37° C. for 60 min. Eight μl of the mixture was spotted on the slide glass and mounted with Fluoromount (cat #K024, Di-agonistic BioSystems, CA, USA). […]

B1: GST-PH: glutathione transferase-tagged PH domain (521-618 amino acids) of human dynamin 1 (protein)
chain: IRKGWLTINNIGIMKGGSKEYWFVLTAENLSWYKDDEEKEKKYMLSVDNLKLRDVEKGFMSSKHIFALFNTEQRNVYKDYRQLELACETQEEVDSWKA
modifications: left off: a dimerising Fc or GST
- Co-localization with MTs: co-localized with MTs
